Source: patent US20220387304A1, “MULTI-LAYERED NANOPARTICLE COATED SUBSTRATES FOR DRUG DELIVERY” (The UAB Research Foundation, priority 2019, published 2022)

Test system: HSNECs
Assay: Ciliary beat frequency analysis
Format: cell-based, human
Conditions: azithromycin 30 μg/ml, ciprofloxacin 0.5 μg/ml, apical surface
Method: After applying 100 μL of sterilized PBS as control or PBS containing drug to the apical surface of the cells, the motion images were acquired for 30 minutes. Under each condition, image acquisition was performed using a Basler area scan high-speed monochromatic digital video camera (Basler AG, Ahrensburg, Germany) at a sampling rate of 100 frames per second. The Sisson-Ammons Video Analysis (SAVA) system was used to acquire CBF. Baseline CBF recording was conducted in the previously described manner, and each analysis of CBF was normalized to fold-change over baseline CBF Hz (treatment/baseline).^28

O=C(O)c1cn(C2CC2)c2cc(N3CCNCC3)c(F)cc2c1=O [ciprofloxacin]
CBF fold changes (treatment/baseline): 1.41+/−0.32
